This passage reports IC50 results from ChEMBL document CHEMBL5335866, “Structure-Based Optimization of Selective and Brain Penetrant CK1δ Inhibitors for the Treatment of Circadian Disruptions” (ACS Med Chem Lett, 2024).

Protein sequences, listed by entry. Tags and fused reporters are not part of them. Lines headed by an entry give the natural chain unless they say otherwise; changes in a name come on top.
UniProt P48730: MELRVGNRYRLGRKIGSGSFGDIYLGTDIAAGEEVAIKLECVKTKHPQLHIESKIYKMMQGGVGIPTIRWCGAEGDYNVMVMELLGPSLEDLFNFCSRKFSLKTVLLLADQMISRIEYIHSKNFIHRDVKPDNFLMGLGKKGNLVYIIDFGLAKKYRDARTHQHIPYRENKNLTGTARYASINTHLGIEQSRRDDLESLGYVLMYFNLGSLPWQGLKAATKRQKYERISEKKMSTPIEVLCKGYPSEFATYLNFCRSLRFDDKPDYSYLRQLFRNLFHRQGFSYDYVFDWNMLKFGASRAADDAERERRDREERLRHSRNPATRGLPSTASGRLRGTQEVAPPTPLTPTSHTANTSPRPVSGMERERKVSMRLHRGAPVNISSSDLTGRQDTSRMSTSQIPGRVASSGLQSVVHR

The target of the assay is Casein kinase I isoform delta (Homo sapiens, UniProt P48730). As to the kind of experiment: Displacement of kinase tracer 8 from NanoLuc-tagged CK1 delta (unknown origin) transfected in CHO cells by BRET assay. It is filed as cell-based.

In the case of `CC1(C)Cn2nc(-c3ccc(F)cn3)c(-c3ccnc4[nH]ncc34)c2CO1`, the IC50 is 62 nM.

One may read the IC50 as the concentration that gives 50% inhibition.
